Reference: paper PMC8540265, “Activity of New Synthetic (2-Chloroethylthio)-1,4-naphthoquinones in Prostate Cancer Cells” (Pharmaceuticals, 2021)

Experiments:
22Rv1 cells [1] = assay: Annexin-V-FITC/PI double staining and flow cytometry, 22Rv1 cells; assay type: cell-based, human; conditions: 22Rv1, zVAD 1 h pre-treatment, 48 h
MRC-9 cells = assay: Annexin-V-FITC/PI double staining and flow cytometry, MRC-9 cells; conditions: 48 h
Protocol: The experiment was performed as previously reported with slight modifications. In brief, 0.2 × 10^6 cells/well were seeded in 6-well plates and incubated overnight. The medium was exchanged with a fresh culture medium (1 mL/well) and the cells were pre-treated with z-VAD(OMe)-fmk for 1 h, followed by treatment with the investigated drugs for 48 h. The cells were then harvested by trypsinization as described for the DNA fragmentation and cell cycle analysis (see Section 3.2.5), double-stained using annexin-V-FITC and PI, and analyzed using the flow cytometry technique with either FACS Canto or FACS Calibur machines (BD Bioscience, San Jose, CA, USA) and BD Bioscience Cell Quest Pro v.5.2.1 software (BD Bioscience).

[2] = test system: 22Rv1, PC-3, and LNCaP cells; assay: DNA fragmentation and cell cycle analysis (PI staining, flow cytometry)
Protocol: The experiment was performed as previously reported. In brief, 0.2 × 10^6 cells/well were seeded in 12-well plates at 1 mL/well, incubated overnight, and treated with the tested compounds in fresh culture media (1 mL/well) for 48 h. Then, the cells were harvested using trypsinization, fixed with 70% EtOH overnight, stained with propidium iodide (PI), and analyzed using the flow cytometry technique. For the analysis, the FACS Calibur (BD Bioscience, San Jose, CA, USA) instrument and BD Bioscience Cell Quest Pro v.5.2.1 software (BD Bioscience) were used.

caspase-3 and PARP = assay: Western blotting, cleavage of caspase-3 and PARP; conditions: treated cells, 48 h
Protocol: (§1) Western blotting was performed as previously reported. The cells were seeded in ø 6 cm Petri dishes (1 × 10^6 cells/dish in 5 mL/dish of culture media), incubated overnight, and treated with drugs at 5 mL/dish of a fresh culture medium for either 2 h or 48 h. The cells were harvested and lysed in lysis buffer. Then, the protein concentration was determined by the Bradford assay, and 20 μg total protein of each sample was loaded on the gradient polyacrylamide ready-made gel (Bio-Rad, Hercules, CA, USA). The proteins were separated, transferred onto a PVDF membrane, and detected using the corresponding primary and secondary antibodies.

Bcl-2 = assay: Western blotting, Bcl-2 in 22Rv1 cells; conditions: 22Rv1, 48 h
Protocol: as §1

Bax = assay: Western blotting, Bax in 22Rv1 cells; conditions: 22Rv1, 48 h
Protocol: as §1

22Rv1 cells [3] = assay: Evaluation of intracellular ROS (CM-H2DCFDA, flow cytometry); conditions: 22Rv1, 2 h, very low nanomolar concentrations
Protocol: The levels of intracellular ROS were evaluated using the reactive oxygen species-sensitive CM-H2DCFDA reagent and the flow cytometry technique. 22Rv1 cells were plated in 12-well plates and consequently incubated with CM-H2DCFDA solution in PBS, and then treated with the drug solution in PBS for the indicated time. Next, the cells were harvested and immediately analyzed according to the manufacturer’s protocols as previously described.

22Rv1 cells [4] = assay: Drug combinational studies (MTT, Chou–Talalay method); conditions: CI: >1.2 antagonism, 0.85~1.2 additive, <0.85 synergism
Protocol: A total of 6000 cells/well were seeded in 96-well plates, incubated overnight, and treated with the drugs in 100 μL/well of the corresponding fresh culture media for 48 h, as previously described. For combinational assays, the cells were pre-treated with the corresponding inhibitor for the indicated time and then co-treated with the tested compounds for 48 h. Then, 10 μL/well of MTT ((3-(4,5-dimethylthiazol-2-yl)-2,5-diphenyltetrazolium bromide) solution was added and the cell viability was measured as previously reported.
The synergistic or antagonistic effects of the investigated drugs in combination with approved chemotherapeutic drugs or specific inhibitors were performed using the Chou–Talalay method and as previously described. Cells were pre-treated with the corresponding inhibitor prior to the drug application or co-treated with the drugs and inhibitor for the indicated time at a constant molar ratio. The molar ratios of the individual drugs used for combinational studies are shown in Supplementary Information (Table S2). The in vitro cytotoxic activity of the individual compounds and their combinations was evaluated using the MTT assay. The generated data were analyzed with CompuSyn v.1.0 (ComboSyn Inc., Paramus, NJ, USA) software and a combinational index (CI) was calculated. CI > 1.2 was assumed as antagonism; CI = 0.85~1.2 corresponds to the additive effect; CI < 0.85 refers to synergism. The analysis was performed according to previously published recommendations.

[5] = test system: JNK1/2, p38, ERK1/2, MEK1/2, AKT; assay: Western blotting, kinase activation in 22Rv1 cells; conditions: 22Rv1, 2 h treatment
Protocol: as §1

PSA = assay: Western blotting, PSA in 22Rv1 cells; conditions: 22Rv1, 48 h
Protocol: as §1

AR-FL = assay: Western blotting, AR-FL in 22Rv1 cells; conditions: 22Rv1, 48 h
Protocol: as §1

AR-V7 = assay: Western blotting, AR-V7 in 22Rv1 cells; conditions: 22Rv1, 48 h
Protocol: as §1

22Rv1 cells [6] = assay: Mitochondrial membrane potential analysis (JC-1 staining, flow cytometry); conditions: 22Rv1, 2 h

Cc1c(C)c(O)c2c(c1O)C(=O)C=C(SCCCl)C2=O
effect of pre-treatment with pan-caspase inhibitor zVAD on induced apoptosis (22Rv1 cells [1]): significantly (however, not completely) inhibit | pro-apoptotic effects in non-cancer MRC-9 cells compared with cancer cells (MRC-9 cells): less pronounced | DNA fragmentation (sub-G1 population) ([2]; 22Rv1, PC-3, LNCaP, 48 h): dramatic dose-dependent DNA fragmentation | effects on cell cycle progression ([2]; either cell line, data not shown): no significant effects | cleavage of caspase-3 and PARP (caspase-3 and PARP): cleavage of caspase-3 and PARP | Bcl-2 expression (Bcl-2): down-regulation | Bax expression level (Bax): no significant changes | ROS level (22Rv1 cells [3]): up-regulation of ROS | effect in combination with AKTi (GSK-690693) (22Rv1 cells [4]; 22Rv1, 48 h, MTT): very strong synergism | effect in combination with ERKi (SCH772984) (22Rv1 cells [4]; 22Rv1, 48 h, MTT): pronounced synergistic effects | effect in combination with JNKi (SP600125) (22Rv1 cells [4]; 22Rv1, 48 h, MTT): additive to synergistic effects | effect in combination with MEKi (PD98059) (22Rv1 cells [4]; 22Rv1, 48 h, MTT): pronounced synergistic effects | effect in combination with carboplatin (22Rv1 cells [4]; 22Rv1, 48 h, MTT): additive to antagonistic effect | effect in combination with cisplatin (22Rv1 cells [4]; 22Rv1, 48 h, MTT): additive to antagonistic effect | effect in combination with docetaxel (22Rv1 cells [4]; 22Rv1, 48 h, MTT): rather antagonistic effect | effect in combination with enzalutamide (22Rv1 cells [4]; 22Rv1, 48 h, MTT): clear additive effect | effect in combination with p38i (SB203580) (22Rv1 cells [4]; 22Rv1, 48 h, MTT): additive to synergistic effects | effect in combination with olaparib (22Rv1 cells [4]; 22Rv1, MTT): promising synergistic effects | effect on kinases JNK1/2, p38, ERK1/2, MEK1/2 and AKT [5]: activation | expression of PSA (PSA): down-regulation | expression of AR-FL (AR-FL): down-regulation | AR-V7 expression (AR-V7): dose-dependent down-regulation | effect on mitochondrial membrane potential (ΔΨm) (22Rv1 cells [6]): provoked mitochondrial membrane depolarization
